Columns and labels:
[1] = system: phosphorylated EGFR receptor; assay: p-EGFR level by flow cytometry, A431 cells treated with EGF and cetuximab; assay type: cell-based; details: 20 minutes, EGF and 5 ug/ml cetuximab
Method: (§1) The level of phosphorylated EGFR receptor was measured in cell lines by flow cytometry.

[2] = system: phosphorylated EGFR receptor; assay: p-EGFR level by flow cytometry, HaCaT cells treated with EGF and cetuximab; assay type: cell-based, human; details: 20 minutes, EGF and 5 ug/ml cetuximab
Method: The novel approach proposed by the invention is to specifically target and block the effect of the anti-neoplastic biological targeted agents in the skin. Cetuximab and panitumumab are known monoclonal antibodies that block EGFR.
as §1

[3] = system: A431 cells; assay: annexin-V/PI flow cytometry, cetuximab induced cell death in A431 cells; assay type: cell-based; details: cetuximab alone, 72 hours, one representative experiment
Method: (§2) Apoptosis and cell death were evaluated by annexin-V and propidium-iodide (PI) labeling, followed by flow cytometry.

[4] = system: HaCaT cells; assay: annexin-V/PI flow cytometry, cetuximab induced cell death in HaCaT cells; assay type: cell-based, human; details: cetuximab alone, 72 hours, one representative experiment
Method: The novel approach proposed by the invention is to specifically target and block the effect of the anti-neoplastic biological targeted agents in the skin.
as §2

cetuximab: known monoclonal antibody that blocks EGFR [reference compound]
activated levels of p-EGFR [1]: 16.8% | activated levels of p-EGFR [2]: 15% | live cells [3]: 34.6% | live cells [4]: 55%

From patent publication US20250387378A1, “METHODS AND COMPOSITIONS FOR PREVENTING SKIN TOXICITIES CAUSED BY BIOLOGICAL TARGETED CANCER DRUGS” (Hadasit Medical Research Services & Development Limited, priority 2019, published 2025)
